Assay results reported in article PMC6452631 (Journal of medicinal chemistry, 2017).

Tests used:
hTG2 = target: T1, hTG2 (Homo sapiens, UniProt P21980); conditions: pH 6.5
T1 sequence (P21980 1-687): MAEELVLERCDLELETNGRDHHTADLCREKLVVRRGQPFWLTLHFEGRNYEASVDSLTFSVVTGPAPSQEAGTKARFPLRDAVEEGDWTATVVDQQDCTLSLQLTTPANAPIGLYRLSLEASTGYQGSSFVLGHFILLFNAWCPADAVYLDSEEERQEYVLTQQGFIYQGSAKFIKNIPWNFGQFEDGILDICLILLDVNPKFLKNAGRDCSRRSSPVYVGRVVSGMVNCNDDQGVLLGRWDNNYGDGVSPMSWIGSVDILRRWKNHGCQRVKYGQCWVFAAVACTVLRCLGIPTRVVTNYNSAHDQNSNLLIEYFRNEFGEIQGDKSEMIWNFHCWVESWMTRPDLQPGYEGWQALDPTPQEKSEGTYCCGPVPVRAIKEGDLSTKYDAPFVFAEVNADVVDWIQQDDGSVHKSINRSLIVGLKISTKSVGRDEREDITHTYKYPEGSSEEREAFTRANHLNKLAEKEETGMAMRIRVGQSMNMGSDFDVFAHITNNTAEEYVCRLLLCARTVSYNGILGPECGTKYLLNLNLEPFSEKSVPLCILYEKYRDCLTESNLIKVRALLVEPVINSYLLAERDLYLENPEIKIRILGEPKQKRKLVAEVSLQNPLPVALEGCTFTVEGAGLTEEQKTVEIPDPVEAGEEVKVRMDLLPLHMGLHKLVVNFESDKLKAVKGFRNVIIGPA

gplTG2 = conditions: cited from earlier work

C=CC(=O)NCCCC[C@H](NC(=O)OCc1ccccc1)C(=O)O [Compound 1, (S)-6-Acrylamido-2-(((benzyloxy)carbonyl)amino)hexanoic Acid]
kinact (hTG2): 0.0133 s⁻¹
efficiency constants (kinact/KI) (gplTG2): 10^6 M^−1 min^−1
